Data taken from patent US20260273048A1, “METHODS OF IMPROVING TRANSPLANT SURVIVAL USING IL-2 RECEPTOR GAMMA CHAIN ANTIBODIES” (Regeneron Pharmaceuticals, Inc., priority 2023, published 2026).

System: BALB/cJ tail skin graft on VG mice humanized for IL2RG
Assay: In vivo skin graft rejection model, REGN7257 induction with abatacept maintenance (Example 2)
Parameters: species or system mouse
Conditions: induction: 2 doses 25 mg/kg s.c. (2 days prior and day of transplant); maintenance: 25 mg/kg s.c. 2 times per week from day of transplant until rejection; FIG. 5
Text: BALB/cJ mice obtained from The Jackson Laboratory (Bar Harbor, ME) were used as skin graft donors, and MHC mismatched Velocigene® (VG) background mice (C57BL/6NTac (75%)/129S6SvEvTac (25%)) from the Regeneron Velocigene® breeding colony that were genetically modified to replace the endogenous IL2RG ectodomain with the corresponding human sequences were used as recipients. The skin graft was obtained from the tail of the donor mice. The skin was the peeled off using forceps and punched with a 10 mm diameter biopsy punch.
As shown in Table 3 below and in FIG. 4, VG mice (humanized for IL2RG), used as graft recipients, were administered no treatment (negative control); or a treatment regimen as follows: • 2 doses of an IgG4 isotype control (REGN1945) or REGN7257 subcutaneously at 25 mg/kg, one dose 2 days prior and one dose the day of the skin transplant (“induction mAb treatment”); and • an IgG1 isotype control (REGN1932) or abatacept subcutaneously at 25 mg/kg at a frequency of 2 times per week starting the day of the transplant, and continuing until rejection (“maintenance mAb treatment”). […]
These grafts will display scabbing and contraction several […] from bandage removal. […] The complete rejection timepoint is recorded as the first day where 100% of the graft tissue was necrotic. Significance was determined by Log-rank (Mantel-Cox) test with Bonferroni correction (α=0.005, k=10).

With abatacept [reference compound] the “skin graft median survival time [MST] (time to complete skin graft rejection)” value was 10 days.
